Test results from patent publication US20160089341A1, “METHODS FOR TREATING AND PREVENTING STATUS EPILEPTICUS AND ORGANOPHOSPHATE POISONING” (published 2016).

Tests used:
[1] = system: seizures induced by pilocarpine; test: rat pilocarpine model of status epilepticus: halting seizures; conditions: 65 mg/kg i.p.
[2] = system: seizures induced by pilocarpine; test: seizure EEG activity in rat having seizures induced by pilocarpine; conditions: 65 mg/kg i.p., up to 8 hours, rat with pilocarpine-induced seizures
[3] = system: Pilocarpine Model seizures; conditions: in vivo; cited from earlier work
[4] = system: 6 Hz Psychomotor model seizures; conditions: cited from earlier work
[5] = system: Maximal Electroshock Model seizures; conditions: in vivo; cited from earlier work
[6] = system: seizures induced by the nerve agent soman; test: halting seizures induced by the nerve agent soman in the rat; conditions: for Number of animals protected/number tested: 20 minutes after seizure onset, soman

In the case of `CC(C)c1cccc(C(C)C)c1O`, the “number animals protected/number of animals treated” value (“number animals protected/number” below) ([1]; given 0 hour after onset of S3-5 seizures, listed as propofol) is reported as 7 of 8, the “number animals protected/number” value ([1]; given 0.5 hours after onset of S3-5 seizures, listed as propofol) is reported as 6 of 8 and the “change in power of EEG activity” value [2] is reported as “did not cause a significant reduction”.

For `O=C1NC(=O)C(c2ccccc2)(c2ccccc2)N1`, the “halting seizures in the Pilocarpine Model test” value [3] is given as “Neither compound is effective”, the “halting seizures in the mouse 6 Hz Psychomotor model” value [4] is given as “poor activity” and the “anticonvulsant activity in the Maximal Electroshock Model (MES)” value [5] is given as “good anticonvulsant activity”.

With `CCC(C)c1cccc(C(C)CC)c1O` (racemic) the “number animals protected/number” value ([1]; given 0 hour after onset of S3-5 seizures) was 8/8, the “number animals protected/number” value ([1]; given 0 hour after onset of S3-5 seizures, listed as 2,6-Di-sec-butylphenol) was “completely protective” and the “number animals protected/number” value ([1]; given 0.5 hours after onset of S3-5 seizures) was 8/8. The “number animals protected/number” value ([1]; given 0.5 hours after onset of S3-5 seizures, listed as 2,6-Di-sec-butylphenol) was “completely protective”, the “change in power of EEG activity” value [2] was “significantly reduced” and the “Number of animals protected/number tested” value ([6]; 40 mg/kg i.p.) was 0/6. The “Number of animals protected/number tested” value ([6]; 50 mg/kg i.p.) was 1/6, the “Number of animals protected/number tested” value ([6]; 63 mg/kg i.p.) was 1/6 and the “Number of animals protected/number tested” value ([6]; 79 mg/kg i.p.) was 3/5. For the same compound, the “Number of animals protected/number tested” value ([6]; 100 mg/kg i.p.) was 2/5 and the “activity in inhibiting seizures caused by soman” value ([6]; administered 20 minutes after seizure onset) was “significant activity”.

In the case of `CC[C@@H](C(N)=O)N1CCCC1=O`, the “halting seizures in the Pilocarpine Model test” value [3] is given as “Neither compound is effective”, the “halting seizures in the mouse 6 Hz Psychomotor model” value [4] is given as “effective” and the “anticonvulsant activity in the Maximal Electroshock Model (MES)” value [5] is given as “does not have anticonvulsant activity”.
